Measured affinities in a library of Ab-14 heavy chain variants

The target is the same throughout: PDVDLGDISGINAS, from the HR2 region of SARS-CoV-2 spike.

Parent: Ab-14, a human scFv built as VH, the linker GGGGSGGGGSGGGGS, VL. Only the CDRs of the heavy chain vary.
VH: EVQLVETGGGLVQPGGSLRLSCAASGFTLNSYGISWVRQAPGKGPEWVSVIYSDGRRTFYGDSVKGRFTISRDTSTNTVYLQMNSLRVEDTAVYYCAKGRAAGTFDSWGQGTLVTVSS
VL: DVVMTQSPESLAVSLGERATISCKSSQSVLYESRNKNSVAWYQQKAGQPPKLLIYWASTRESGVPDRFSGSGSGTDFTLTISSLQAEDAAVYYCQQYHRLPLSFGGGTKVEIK

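The starting antibody came from a phage panning campaign against this peptide. In library AAYL49, one, two or three CDR residues were substituted; doubles and triples were drawn at random. Affinity was read by AlphaSeq, a pooled yeast mating assay with surface-displayed partners. Mating (16 h, 30 °C) was followed by selection of diploids and sequencing of their barcodes. Scores were corrected for input abundance and mapped to Kd with protein pairs of known affinity run in the same pool. There are three technical replicates.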

Positions count from residue 1 of the parent VH; I34F puts F in place of I.
Every variant below is changed at V64 of the VH (sequential numbering).
Each Kd is an estimate from the mating assay, the geometric mean of the replicates in which the pair was seen; lower is stronger.
"no signal" marks a missing value. The strain was present, yet no cells mated with the target were sequenced in any replicate, which points to weak or no binding.
Parent in this assay: reference entry 4.4 nM, copy in this library 13 µM (one replicate of three).

Variant I34F/V64N/D106M showed no signal (0 of 3 replicates). Variant S53V/G55L/V64L showed no signal (0 of 3 replicates). Variant G33P/V64H showed 2.8 µM (1 of 3 replicates). Variant V64H/K65R gave 16 µM (1 of 3 replicates). Variant V64N/G99A/S107E gave no signal (0 of 3 replicates). Variant S31P/V64N/K65A showed no signal (0 of 3 replicates). For S53V/V64N/A102T, the assay gave no signal (0 of 3 replicates).

With I51W/V64Y the result was 5.6 µM (1 of 3 replicates). With V64H/A101D/A102F the result was 50 µM (1 of 3 replicates). For I34C/V64S/F105Q, the assay gave no signal (0 of 3 replicates). With V50H/V64Q the result was 340 µM (1 of 3 replicates). With Y32H/S35Y/V64C the result was no signal (0 of 3 replicates). With F27R/D62H/V64M the result was no signal (0 of 3 replicates). Variant V50N/G55M/V64S showed no signal (0 of 3 replicates).

Variant N30K/Y32T/V64Q gave no signal (0 of 3 replicates). With V64Y/R100E/G103V the result was no signal (0 of 3 replicates). With S53Y/R57L/V64Q the result was 2.9 µM (1 of 3 replicates). Variant D54C/V64N/K65L gave no signal (0 of 3 replicates). Variant L29Q/V64P/G99M gave 24 µM (1 of 3 replicates). With V50C/V64P/T104F the result was no signal (0 of 3 replicates). For F27L/F59G/V64A, the assay gave 6.5 µM (2 of 3 replicates).

With V50R/V64C/D106V the result was no signal (0 of 3 replicates). For S31W/Y52S/V64Y, the assay gave 2.2 µM (1 of 3 replicates). With Y52P/V64Y/F105R the result was no signal (0 of 3 replicates). For G55T/T58W/V64N, the assay gave no signal (0 of 3 replicates). Variant L29H/V64D/S107K showed 2.1 µM (1 of 3 replicates).

The last 3 entries again:

The variant Y52P/V64Y/F105R showed no signal (0 of 3 replicates).
The variant G55T/T58W/V64N showed no signal (0 of 3 replicates).
The variant L29H/V64D/S107K showed 2.1 µM (1 of 3 replicates).

As a blank, each scFv also met three strains without target: over library AAYL49, 15% of these pairings were detected, typically at 11 µM and seldom below 680 nM.

Reference: Engelhart et al. 2022, doi:10.1038/s41597-022-01779-4. File: FLAb, binding data.